# Reference: patent US9591855B2, “Diindol-3-ylmethanes as potent non-toxic antifouling compounds” (Hong Kong University of Science and Technology, priority 2014, dated 2017)
# Tested on: Balanus amphitrite cypris larvae
# Conditions: read-out: LC50 (concentration in which 50% of the test larvae population was killed), 48 h
# 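Also: larvae held in 24-well plates with compound in seawater, dark, 48 h, settled larvae (attached plus metamorphosed) and dead or missing larvae counted microscopically as percent of total per well.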
substance,measurement,value
arsindoline A [Compound 6],LC50,> 134 µM
